Values quoted from earlier work as cited in patent publication US20170037111A1, “Novel peptides and combination of peptides for use in immunotherapy against ovarian cancer and other cancers” (immatics biotechnologies GmbH, priority 2015, published 2017).

System: ovarian cancer
Details: clinical studies, phase as stated; cited from earlier work

trastuzumab: anti-HER2/neu antibody
clinical effect in ovarian cancer patients: limited clinical benefit
